The target of assay [1] is Alpha-2A adrenergic receptor (Homo sapiens, UniProt P08913).
The target of assay [2] is 5-hydroxytryptamine receptor 1A (Homo sapiens, UniProt P08908).

Amino acid sequences for entries named in this document (tags omitted).
UniProt P08913, whole entry: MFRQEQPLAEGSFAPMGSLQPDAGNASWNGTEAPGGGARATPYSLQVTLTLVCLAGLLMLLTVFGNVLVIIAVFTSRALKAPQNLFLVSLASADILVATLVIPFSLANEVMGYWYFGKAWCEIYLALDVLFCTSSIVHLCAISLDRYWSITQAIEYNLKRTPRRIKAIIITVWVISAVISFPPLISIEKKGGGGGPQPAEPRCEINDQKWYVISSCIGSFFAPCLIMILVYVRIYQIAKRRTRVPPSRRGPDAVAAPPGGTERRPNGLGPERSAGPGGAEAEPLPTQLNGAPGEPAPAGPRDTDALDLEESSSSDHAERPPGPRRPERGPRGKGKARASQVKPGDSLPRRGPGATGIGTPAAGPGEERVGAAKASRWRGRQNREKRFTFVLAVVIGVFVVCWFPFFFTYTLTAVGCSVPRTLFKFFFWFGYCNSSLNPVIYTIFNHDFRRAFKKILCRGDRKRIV
UniProt P08908, whole entry: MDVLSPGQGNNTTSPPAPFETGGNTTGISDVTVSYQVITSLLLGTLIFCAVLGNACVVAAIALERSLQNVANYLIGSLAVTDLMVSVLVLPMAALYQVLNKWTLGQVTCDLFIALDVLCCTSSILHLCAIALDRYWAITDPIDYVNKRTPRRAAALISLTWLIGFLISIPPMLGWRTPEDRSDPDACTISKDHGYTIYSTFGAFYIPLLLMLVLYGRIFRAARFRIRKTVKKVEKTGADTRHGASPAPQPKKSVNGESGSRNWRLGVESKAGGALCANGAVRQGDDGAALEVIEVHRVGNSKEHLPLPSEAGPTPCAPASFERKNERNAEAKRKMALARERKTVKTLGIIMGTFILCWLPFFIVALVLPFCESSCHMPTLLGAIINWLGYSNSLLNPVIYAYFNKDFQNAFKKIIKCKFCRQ

By Ki is commonly meant a dissociation constant, usually derived from enzyme kinetics or from competition with a known ligand. The low end stands for a stronger hold on the target, the high end for a looser hold on the target.

Turning to `CNCCC(Oc1ccccc1C)c1ccccc1` (configuration not stated) [Methyl-(3-phenyl-3-o-tolyloxy-propyl)-amine(tomoxetine)], the results for the Ki in assay [1] and in assay [2] were 8.8 µM and > 10 µM, respectively.

Values taken from BindingDB's records for doi:10.1007/BF02244985 (Mayo Clinic, 1994).
